Test results reported in patent US20140323414A1 (priority 2011, published 2014).

Tested on: live anesthetized rats
Details: rat, in vivo

Structure (SMILES): CNCC(O)c1ccc(O)c(O)c1 (centres unmarked) [Adrenalin]
- arterial blood pressure (ABP): increased
- heart contractility (LvP): 200 mmHg
